Experimental data reported in PubChem BioAssay AID431 (Sanford-Burnham Center for Chemical Genomics, 2006).
The entries are a selection whose mix differs from that of the whole data set. Potency and affinity values are given separately. The source made the active and inactive calls.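 The calls were made as follows: active = compounds whose percent cytotoxicity in the single-dose primary screen, scaled between solvent and toxic-drug controls, exceeds 50; inactive = the rest.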

Assay: viability loss of HPDE-C7K cells – cell-based, fluorescence, HTS, primary screen (AID 431);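 also: 0% = DMSO solvent wells and 100% = doxorubicin-treated wells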
Details: HPDE-C7K KRASV12 cells, Alamar Blue viability, 48 h; at 10 µM; active compounds read high

Row | Structure (SMILES) | cytotoxicity
1 | COc1ccccc1OP(C)(=O)Nc1ccc(C)cc1 (stereo unspecified) | inactive: -3.9%
